# scFv variants of Ab-14 (light chain) against a SARS-CoV-2 spike peptide

From the AlphaSeq antibody data of Engelhart et al. 2022 (doi:10.1038/s41597-022-01779-4), copy in the FLAb collection.

The target is the same throughout: PDVDLGDISGINAS, from the HR2 region of SARS-CoV-2 spike.

The variants keep the heavy chain, the linker and the frameworks of Ab-14 (scFv order VH, a 15-residue (Gly4Ser)3 linker, VL).
VH: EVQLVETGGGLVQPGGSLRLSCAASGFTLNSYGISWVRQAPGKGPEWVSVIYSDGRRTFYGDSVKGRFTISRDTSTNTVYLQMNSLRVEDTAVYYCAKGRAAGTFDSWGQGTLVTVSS
VL: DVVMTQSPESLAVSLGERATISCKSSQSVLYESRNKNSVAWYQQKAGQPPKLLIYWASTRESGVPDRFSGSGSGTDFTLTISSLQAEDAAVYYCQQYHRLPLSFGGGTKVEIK

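The parent was found by panning a naive human phage display library on the peptide. Variants in AAYL50 differ from the parent at up to three CDR positions; double and triple changes were sampled at random. Affinity was read by AlphaSeq, a pooled yeast mating assay with surface-displayed partners. Mating (16 h, 30 °C) was followed by selection of diploids and sequencing of their barcodes. A regression on co-assayed BCL2-family reference pairs converts the normalised counts of each replicate to an apparent Kd. Each pool was mated in three replicate cultures.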

Changes read parent residue, position, new residue, counted from the first residue of the VL shown. Numbers give log10(Kd / nM), so 0 is 1 nM and 3 is 1 µM. Smaller is tighter. Replicates are averaged; those with no signal do not enter the mean. "nd" means that the variant was in the library but no mating with the target was seen in that replicate; the authors take this as a sign of poor binding, and no number exists. Entries are sorted by rising average, undetected variants last. Background: pairings of library AAYL50 with three empty control strains gave a value in 18% of cases (median 4.19, 5th percentile 2.99). Values in that range, when seen in few replicates, are hard to tell from nonspecific mating. The control count says in how many pairings with the empty strains this scFv gave a signal, with their mean in brackets.

log10 Kd (nM) by replicate	mean, log10 nM	empty controls	changes
0.33 0.41 0.38	0.37	1 of 9 (5.73)	S25Q/Q27W/L30G
0.44 0.61 0.60	0.55	0 of 9	R34A/K36H
0.75 0.89 0.76	0.80	2 of 9 (4.61)	Y31W/R34E
0.71 0.90 0.88	0.83	1 of 9 (4.95)	Y31R/H98F
1.22 1.24 1.51	1.32	0 of 9	L30M/W56Y/A57K
1.15 1.41 1.63	1.40	2 of 9 (4.59)	S26N/E61I
1.72 1.50 1.46	1.56	0 of 9	V29T/E32Q/L102R
2.09 1.34 2.28	1.90	0 of 9	S26M/N35D/K36A
2.23 1.90 1.92	2.01	2 of 9 (4.54)	N35R/E61D/Q96W
2.30 2.45 2.59	2.45	2 of 9 (4.58)	R34Q/P101C/L102H
nd 2.99 3.13	3.06	1 of 9 (3.43)	L30R/E32C/L100V
4.58 2.28 2.44	3.10	0 of 9	S25I/R60E/S62K
3.21 nd nd	3.21	0 of 9	K24A/N35S/S58M
2.95 3.52 nd	3.24	3 of 9 (5.04)	W56E/Q95T
nd 3.50 3.17	3.34	1 of 9 (4.06)	V29M/R60H/Q96L
4.08 3.35 2.80	3.41	3 of 9 (3.52)	S33Y/N35E
nd 3.61 nd	3.61	1 of 9 (3.88)	S25P/N35F/S38A
nd 4.00 nd	4.00	1 of 9 (3.42)	V39N/S58V/R99G
4.75 nd 4.57	4.66	6 of 9 (3.90)	Y31S/N37G/V39M
5.13 nd 5.88	5.50	4 of 9 (4.20)	S38W/L100T/L102I
5.65 nd nd	5.65	0 of 9	S62R/Q95R/P101F
5.89 nd nd	5.89	3 of 9 (3.64)	S33Q/N37V/E61K
nd nd nd	nd	0 of 9	S26F/K36D/P101D
nd nd nd	nd	1 of 9 (3.45)	V29T/N35A/S103F
nd nd nd	nd	4 of 9 (4.36)	V29N/W56I/Q95T
nd nd nd	nd	1 of 9 (3.47)	Y31W/E32F/R60G
nd nd nd	nd	1 of 9 (3.33)	S58Q/Q95D/Y97M
nd nd nd	nd	1 of 9 (6.14)	V39S/A40S/W56N
nd nd nd	nd	0 of 9	A40R/S58T/T59G
nd nd nd	nd	0 of 9	E32N/R34W/N37L
nd nd nd	nd	0 of 9	Q27R/S28R/Y97R
nd nd nd	nd	1 of 9 (3.05)	N37C/V39K/T59E

3 of these entries, quoted again:

changes	log10 Kd (nM) by replicate	mean, log10 nM	empty controls
Y31S/N37G/V39M	4.75 nd 4.57	4.66	6 of 9 (3.90)
V29T/E32Q/L102R	1.72 1.50 1.46	1.56	0 of 9
R34Q/P101C/L102H	2.30 2.45 2.59	2.45	2 of 9 (4.58)

Parent in this assay: reference entry 0.65, copy in this library 1.68.